Laboratory results reported in patent EP0170623B1, “Novel pharmaceutical use of (NVA)2-cyclosporine” (SANDOZ AG, priority 1984, dated 1990).

Conditions: 100 mg/kg/day in olive oil by stomach tube

For (Nva)^2-Cyclosporine, which “neurological symptoms, mortality, kidney biochemistry and histology and liver biochemistry, versus Cyclosporine Group 2” value (Group 1 compared with Group 2 (100 mg/kg Cyclosporine/day)) is on record?
Its value is “marked superiority in comparison with results obtained for Group 2”.

And the “adverse reaction in respect of other parameters measured” value (Group 1 compared with Group 2 (Cyclosporine), body weight, serum and urine analysis etc.)?
The value was “No adverse reaction”.
